Measured values: US20090100532A1, “TRANSGENIC MICE EXPRESSING HYPERSENSITIVE NICOTINIC RECEPTORS” (CALIFORNIA INSTITUTE OF TECHNOLOGY, priority 2007, published 2009)

Sequences of proteins named here, by UniProt entry; tags and fusion partners are left off.
UniProt P61168, whole entry: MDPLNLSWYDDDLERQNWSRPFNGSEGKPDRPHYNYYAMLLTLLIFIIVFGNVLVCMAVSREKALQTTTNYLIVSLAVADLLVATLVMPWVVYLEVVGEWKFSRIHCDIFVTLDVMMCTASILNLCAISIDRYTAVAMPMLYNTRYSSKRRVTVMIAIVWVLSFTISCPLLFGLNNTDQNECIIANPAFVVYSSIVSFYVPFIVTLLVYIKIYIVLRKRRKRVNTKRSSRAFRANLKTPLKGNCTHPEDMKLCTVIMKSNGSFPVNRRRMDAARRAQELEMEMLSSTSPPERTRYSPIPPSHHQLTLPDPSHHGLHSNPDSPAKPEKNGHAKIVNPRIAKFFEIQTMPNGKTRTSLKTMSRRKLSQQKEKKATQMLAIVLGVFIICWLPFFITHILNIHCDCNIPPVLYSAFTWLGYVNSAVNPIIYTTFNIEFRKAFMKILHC

Target: D2 DA receptor (Mus musculus, UniProt P61168)

SMILES: CCCN1CCC[C@@H]2Cc3n[nH]cc3C[C@H]21 [quinpirole]
- inhibition of firing of cells expressing α6* nAChRs: sensitive to the inhibitory properties
